The target in the test is Carbonic anhydrase 9 (Homo sapiens, UniProt Q16790).

One may read the Ki as a measure of affinity in units of concentration, obtained from inhibition or displacement. The low end stands for tighter binding, the high end for weaker binding.

On to `NS(=O)(=O)c1nnc(-c2ccccc2Cl)s1`, for which affinity was put at a Ki of 30 nM.

Values taken from ChEMBL document CHEMBL1139847, “Carbonic anhydrase inhibitors. DNA cloning, characterization, and inhibition studies of the human secretory isoform VI, a new target for sulfonamide and sulfamate inhibitors” (J Med Chem, 2007).
